Target: CaV2.2 (Homo sapiens, UniProt Q00975)
Experiment: VIPR optical membrane potential assay with electrical stimulation
Settings: Table 3, biological assay data

Compound `CCCCN(C)C(=O)c1oc2ccc(S(=O)(=O)N3CCCCCC3)cc2c1C` has an IC50 of less than 5 µM.

Reference: patent US8211935B2, “Heterocyclic derivatives for modulation of calcium channels” (Vertex Pharmaceuticals Incorporated, priority 2004, dated 2012)
